Target: D(2) dopamine receptor (Rattus norvegicus, UniProt P61169)
Experiment: In vitro antagonistic activity against Dopamine receptor D2 was evaluated for the inhibition of [3H]spiperone binding
Summary of the method: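 Rat striatal membranes were prepared by differential centrifugation in 50 mM Tris pH 7.4 at 4 °C. Membrane protein (10 mg) was incubated 15 min at 37 °C with 0.1 nM [3H]spiperone and varying competitor concentrations. Buffer: 50 mM Tris HCl pH 7.5, 0.1% ascorbic acid, pargyline, 120 mM NaCl, 5 mM KCl, 2 mM CaCl2, 1 mM MgCl2. (+)-Butaclamol defined nonspecific binding. Bound ligand was collected by filtration and scintillation counted. IC50 by log-logit regression.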

Chains of the proteins cited; added tags and fusions are not shown.
UniProt P61169, whole entry: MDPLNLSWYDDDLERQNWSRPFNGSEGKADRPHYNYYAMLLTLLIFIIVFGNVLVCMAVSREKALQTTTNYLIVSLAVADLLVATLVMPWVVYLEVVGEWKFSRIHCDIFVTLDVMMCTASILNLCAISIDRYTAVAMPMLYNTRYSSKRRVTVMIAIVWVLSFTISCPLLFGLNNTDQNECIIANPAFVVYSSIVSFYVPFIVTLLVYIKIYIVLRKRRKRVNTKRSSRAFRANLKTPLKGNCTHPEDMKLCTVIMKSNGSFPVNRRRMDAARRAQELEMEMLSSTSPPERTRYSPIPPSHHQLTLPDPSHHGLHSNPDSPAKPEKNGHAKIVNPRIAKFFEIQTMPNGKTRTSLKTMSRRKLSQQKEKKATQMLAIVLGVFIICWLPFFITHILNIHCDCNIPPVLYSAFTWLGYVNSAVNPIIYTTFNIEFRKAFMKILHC

IC50: 565 nM
Structure (SMILES): CCN(CC)CCNC(=O)c1cc(Cl)c(N)cc1OC [METOCLOPRAMIDE]
